These are literature values, as cited in US20180079906A1, “AZACYANINE DYES AND USE THEREOF” (Ecole Polytechnique Fédérale de Lausanne (EPFL), priority 2016, published 2018).

Converted amounts (≈) assume the structure as drawn.

As a reminder, the solubility is how much of the substance goes into solution per volume.

For the data set the following is noted: in water; cited from earlier work.

For `CC1(C)C(/C=C/C=C/C=C/C=C2\N(CCCCS(=O)(=O)O)c3ccc4ccccc4c3C2(C)C)=[N+](CCCCS(=O)(=O)[O-])c2ccc3ccccc3c21` [ICG, Indocyanine Green], the solubility is 1200 µM (≈ 904 µg/mL).
